Patent publication US20090105270A1, “Kinase inhibition and anticancer therapy” (priority 2007, published 2009)

Chains of the proteins cited; added tags and fusions are not shown. Residues count along the entry.
UniProt P45983, 1-384 isoform P45983-2: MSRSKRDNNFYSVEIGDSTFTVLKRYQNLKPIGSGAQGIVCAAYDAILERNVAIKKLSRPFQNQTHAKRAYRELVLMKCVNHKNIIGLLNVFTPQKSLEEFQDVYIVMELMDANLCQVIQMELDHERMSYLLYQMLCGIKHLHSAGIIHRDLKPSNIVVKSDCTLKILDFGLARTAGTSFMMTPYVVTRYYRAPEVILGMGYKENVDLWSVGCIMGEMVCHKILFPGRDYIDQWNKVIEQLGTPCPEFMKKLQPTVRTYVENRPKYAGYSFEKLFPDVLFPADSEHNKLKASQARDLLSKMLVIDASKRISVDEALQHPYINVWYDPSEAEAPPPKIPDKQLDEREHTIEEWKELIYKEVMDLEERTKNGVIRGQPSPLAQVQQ

Key:
JNK1α1(h) = JNK1α1(h) (Homo sapiens, UniProt P45983); experiment: Upstate kinase activity inhibition assay JNK1α1(h)
EGFR(L858R)(h) = molecular target: T1, EGFR(L858R)(h) (Homo sapiens, UniProt P00533, L858R); experiment: Upstate kinase activity inhibition assay EGFR(L858R)(h); format: biochemical; details: 0.2 μM Compound E
T1 construct: purchased Upstate (KinaseProfiler service)

Measured: percentage of enzyme activity that remains

Cc1cc(Nc2cc(N3CCN(C)CC3)nc(Sc3ccc(NC(=O)C4CC4)cc3)n2)n[nH]1 [Compound E, Cyclopropane carboxylic acid {4-[4-(4-methyl-piperazin-1-yl)-6-(5-methyl-2H-pyrazol-3-ylamino)-pyrimidin-2-ylsulphanyl]-phenyl}-amide]
102%: JNK1α1(h); 0.2 μM Compound E | JNK1α1(h); 4 μM Compound E | EGFR(L858R)(h)
